The results in this text go back to ChEMBL document CHEMBL4495565, “Cytopathic SARS-Cov2 screening on VERO-E6 cells in a large repurposing effort” (2020).

The test system of the assay is SARS-CoV-2. The assay is described as follows: Antiviral activity determined as inhibition of SARS-CoV-2 induced cytotoxicity of VERO-6 cells at 10 uM after 48 hours exposure to 0.01 MOI SARS CoV-2 virus by high content imaging. The settings on record: Chlorocebus sabaeus, Vero C1008.

Turning to `CN(CCCl)CCCl`, the inhibition (commonly the percentage by which the read-out fell short of the control) came to 0.22%.
